Literature values in patent US20250003952A1, “SENOLYTIC DRUG SCREENING METHOD AND SENOLYTIC DRUG” (KYOTO UNIVERSITY, priority 2021, published 2025).

By UniProt entry, the sequences of proteins in these tests, tags left out.
UniProt Q00987, whole entry: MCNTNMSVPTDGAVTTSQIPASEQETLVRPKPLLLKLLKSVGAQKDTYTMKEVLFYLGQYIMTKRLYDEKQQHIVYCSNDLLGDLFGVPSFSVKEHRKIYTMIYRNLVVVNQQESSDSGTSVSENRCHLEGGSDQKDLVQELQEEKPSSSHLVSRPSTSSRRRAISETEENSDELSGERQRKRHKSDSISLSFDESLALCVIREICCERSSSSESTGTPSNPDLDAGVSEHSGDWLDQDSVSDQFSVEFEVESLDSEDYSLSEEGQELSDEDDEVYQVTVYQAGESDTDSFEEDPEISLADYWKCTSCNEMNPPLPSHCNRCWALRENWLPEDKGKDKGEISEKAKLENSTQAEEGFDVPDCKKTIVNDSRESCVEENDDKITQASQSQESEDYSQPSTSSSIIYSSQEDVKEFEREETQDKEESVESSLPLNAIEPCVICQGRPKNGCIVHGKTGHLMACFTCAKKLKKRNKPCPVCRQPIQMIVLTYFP

Molecular target: p53-Mdm2 binding (Homo sapiens, UniProt Q00987)
Conditions: Vassilev et al., 2004; cited from earlier work

SMILES	p53-Mdm2 binding inhibition relative to nutlin 3a	p53 activation
COc1ccc(C2=N[C@H](c3ccc(Cl)cc3)[C@H](c3ccc(Cl)cc3)N2C(=O)N2CCNC(=O)C2)c(OC(C)C)c1 [nutlin 3b]	about 1/100	–
COc1ccc(C2=N[C@@H](c3ccc(Cl)cc3)[C@@H](c3ccc(Cl)cc3)N2C(=O)N2CCNC(=O)C2)c(OC(C)C)c1 [nutlin 3a]	–	activate p53
